Tests used:
[1] = molecular target: T1, isolated guinea pig ileum (Cavia porcellus, UniProt P31389); assay type: cell-based
T1 construct: isolated guinea pig ileum; from tissue; host or cells: isolated guinea pig ileum

Protein sequences, listed by entry. Tags and fused reporters are not part of them. Residues count along the entry.
UniProt P31389, whole entry: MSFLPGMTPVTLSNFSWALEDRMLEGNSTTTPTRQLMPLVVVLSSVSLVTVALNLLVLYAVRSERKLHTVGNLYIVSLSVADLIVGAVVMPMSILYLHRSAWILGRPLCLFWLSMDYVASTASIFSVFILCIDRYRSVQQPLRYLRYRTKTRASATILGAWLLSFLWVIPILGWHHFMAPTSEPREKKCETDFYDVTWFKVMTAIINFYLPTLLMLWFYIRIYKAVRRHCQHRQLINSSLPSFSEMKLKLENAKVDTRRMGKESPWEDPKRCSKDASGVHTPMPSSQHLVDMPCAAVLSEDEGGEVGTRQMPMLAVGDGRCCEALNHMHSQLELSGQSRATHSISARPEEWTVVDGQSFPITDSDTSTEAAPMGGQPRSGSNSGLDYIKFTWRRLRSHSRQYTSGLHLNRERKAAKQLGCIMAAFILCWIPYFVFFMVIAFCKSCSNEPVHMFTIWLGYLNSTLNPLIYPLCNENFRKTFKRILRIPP
UniProt H0W1Z3, 1-590: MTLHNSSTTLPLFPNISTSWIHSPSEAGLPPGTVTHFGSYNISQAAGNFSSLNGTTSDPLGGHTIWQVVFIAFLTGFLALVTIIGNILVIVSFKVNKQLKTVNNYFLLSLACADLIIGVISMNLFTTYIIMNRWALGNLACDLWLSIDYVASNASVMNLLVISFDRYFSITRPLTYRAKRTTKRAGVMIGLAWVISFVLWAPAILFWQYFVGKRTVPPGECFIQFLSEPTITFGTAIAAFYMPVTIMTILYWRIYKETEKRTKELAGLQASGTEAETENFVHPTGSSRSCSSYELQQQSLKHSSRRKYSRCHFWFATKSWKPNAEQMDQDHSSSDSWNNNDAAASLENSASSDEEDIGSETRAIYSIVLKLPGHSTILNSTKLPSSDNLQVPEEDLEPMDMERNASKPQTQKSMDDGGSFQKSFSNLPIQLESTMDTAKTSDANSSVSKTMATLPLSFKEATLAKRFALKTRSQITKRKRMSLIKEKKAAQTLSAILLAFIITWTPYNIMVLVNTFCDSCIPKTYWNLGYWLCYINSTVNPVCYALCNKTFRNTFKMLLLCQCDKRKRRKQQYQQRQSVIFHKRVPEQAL

[2] = molecular target: T2, isolated guinea pig ileum (Cavia porcellus, UniProt H0W1Z3); assay type: cell-based
T2 construct: isolated guinea pig ileum; from tissue; host or cells: isolated guinea pig ileum

What does the source list for “2-[(2-dimethylaminoethyl) (p-methoxybenzyl)amino]-pyridine 1,2,3,6-tetrahydro-1,3-dimethyl-2,6-dioxopurin-7-acetate”?
pA2 [1]: 10.05; dose at which the action of acetylcholine is found to be inhibited [2]: 2.5 µg/mL
